The record followed here is patent US20160229903.

Data set [1] has as its system VWF-055 (VWF D′D3-Fc with 34 amino acid long little a2 linker).
Data set [2] concerns VWF-051 (VWF D′D3-Fc with a linker of 54 amino acids comprising a thrombin cleavage site of A-L-R-P-R-V-V).
Data set [3] deals with VWF-056 (VWF D′D3-Fc with 46 amino acid long little a3 linker).
Data set [4] relates to VWF-039 (VWF D′D3-Fc with thrombin + PAR1 site 26 amino acid long linker).
For data set [5], the system named is VWF-054 (VWF D′D3-Fc with 40 amino acid long little a1 linker).

Take human alpha-thrombin: the “ratio of slopes (thrombin-mediated cleavage rate in RU/s against capture density in RU, Biacore) relative to VWF-031” value in data set [1] is listed as “slopeVWF-055/slopeVWF-031 is 65”; in data set [2], “slopeVWF-051/slopeVWF-031 is 1.8”; in data set [4], “SlopeVWF-039/slopeVWF-031 is 71”. In addition, the “thrombin cleavage (Biacore, release of D′D3 from captured construct)” value in data set [3] and in data set [5] was “˜5-fold reduced thrombin cleavage” each time. The “thrombin cleavage rate relative to VWF-031 (Biacore, release of D′D3 from captured construct)” value in data set [4] is recorded as “approximately 70-80-fold faster than VWF-031 (LVPR)”.
